In paper PMC7180830, “Scaffold Hopping in Discovery of HIV-1 Non-Nucleoside Reverse Transcriptase Inhibitors: From CH(CN)-DABOs to CH(CN)-DAPYs” (Molecules, 2020):

Molecular target: T1, WT HIV-1 RT (Human immunodeficiency virus type 1 group M subtype B, UniProt P03366)
T1 construct: Recombinant wild type p66/p51 HIV-1 RT; made in house
Assay: Reverse transcriptase assay (EnzCheck kit, PicoGreen)
Format: biochemical
Conditions: recombinant wild type p66/p51 HIV-1 RT

`Cc1cc(C#N)cc(C)c1Oc1nc(Nc2ccc(C#N)cc2)nc(N)c1Br` [Etravirine, etravirine, reference compound] gave an IC50 of 10 ± 9 nM.
